Laboratory results published in US11660306B2, “Treatment of Rett syndrome” (Cold Spring Harbor Laboratory, priority 2014, dated 2023).

Legend:
[1] = target: PTP1B405 (Homo sapiens, UniProt P18031); test: Triterpene inhibition of PTP1B405 (Table 2); type: biochemical
[2] = target: PTP1B321 (Homo sapiens, UniProt P18031); test: Triterpene inhibition of PTP1B321 (Table 2); type: biochemical

Ki [1]: 10 µM
Ki [2]: 10 µM
SMILES: CC1(C)[C@@H](O)CC[C@]2(C)[C@H]3C(=O)C=C4[C@@H]5C[C@@](C)(C(=O)O)CC[C@]5(C)CC[C@@]4(C)[C@]3(C)CC[C@@H]12
